This passage reports IC50 results from ChEMBL document CHEMBL1154109, “In vitro biological activity and structural analysis of 2,4-diamino-5-(2'-arylpropargyl)pyrimidine inhibitors of Candida albicans” (Bioorg Med Chem, 2009).

Each structure is given as a SMILES string.

By IC50 is commonly meant the concentration at which inhibition is half-maximal.

For the assay, the target named is T1, Dihydrofolate reductase (Homo sapiens, UniProt P00374).
T1 sequence (P00374 whole entry): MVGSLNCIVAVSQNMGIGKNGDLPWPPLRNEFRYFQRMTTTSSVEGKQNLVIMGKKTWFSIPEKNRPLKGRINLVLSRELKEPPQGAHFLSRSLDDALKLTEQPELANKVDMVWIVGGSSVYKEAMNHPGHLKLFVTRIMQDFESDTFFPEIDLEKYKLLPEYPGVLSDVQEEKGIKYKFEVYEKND

With `COc1cc(CC#Cc2c(C)nc(N)nc2N)cc(-c2c(C)cccc2C)c1`, inhibition was half-maximal at 1.58 µM (IC50).
In the case of `COc1ccc(OC)c(C(O)C#Cc2c(C)nc(N)nc2N)c1` (racemic) it was 1.2 µM; in that of `COc1cc(-c2ccccc2)cc(C(O)C#Cc2c(C)nc(N)nc2N)c1` (racemic), 2.3 µM.
The compound `CCc1nc(N)nc(N)c1C#CC(C)c1cc(OC)c(OC)c(OC)c1` (racemic) registered an IC50 of 0.088 µM.
In the case of `COc1cc(C(C#Cc2c(C)nc(N)nc2N)C(C)C)cc(OC)c1OC` (racemic) it was 0.29 µM.
